# The list shows a part of the results, in another mix than the full data. The source made the active and inactive calls.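 The calls were made as follows: active = inhibition of at least 40% at 20 µM, with no more than 30% in the related APOBEC3A deaminase screen; inactive = the rest.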
# By UniProt entry, the sequences of proteins in these tests, tags left out.
# UniProt Q9HC16, whole entry: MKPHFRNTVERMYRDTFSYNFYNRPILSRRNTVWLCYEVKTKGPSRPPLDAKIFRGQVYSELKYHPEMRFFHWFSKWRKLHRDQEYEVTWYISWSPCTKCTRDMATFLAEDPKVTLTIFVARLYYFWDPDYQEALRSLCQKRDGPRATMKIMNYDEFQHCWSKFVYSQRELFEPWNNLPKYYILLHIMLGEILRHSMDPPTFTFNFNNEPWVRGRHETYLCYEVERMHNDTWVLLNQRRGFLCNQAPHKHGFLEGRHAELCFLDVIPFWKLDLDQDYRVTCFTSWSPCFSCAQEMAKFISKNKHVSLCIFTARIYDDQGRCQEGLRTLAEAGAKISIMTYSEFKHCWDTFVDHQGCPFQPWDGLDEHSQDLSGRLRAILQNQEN
# Biological target: DNA dC->dU-editing enzyme APOBEC-3G (Homo sapiens) (UniProt Q9HC16)
# Test: APOBEC3G DNA deaminase inhibitors, primary screen, biochemical, fluorescence, single-stranded DNA substrate, uHTS (AID 493012);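 also: plate controls were DMSO wells with A3G for no effect and wells lacking A3G enzyme for full effect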
# Details: recombinant A3G, ssDNA deamination FAM/TAMRA fluorescence; at 20 µM; hits give high values
row,Structure (SMILES),inhibition
1,CCC(=O)N(c1ccccc1)C1(COC)CCN(CCn2nnn(CC)c2=O)CC1,inactive: -1.87%
2,CCC(=O)N(c1ccccc1)C1(COC)CCN(CCc2cccs2)CC1,inactive: -7.47%

# From PubChem BioAssay AID493012 (Sanford-Burnham Center for Chemical Genomics, 2011)
